# Earlier results, collected in patent US20240091148A1, “EUTECTIC SOLVENTS COMPRISING PHARMACEUTICAL AGENTS, AND METHODS OF MAKING AND USE THEREOF” (Novilla Pharmaceuticals, Inc., priority 2018, published 2024).
# Conditions: values stated in the description, no method or source given
compound,measurement,value
CN(C)CCC(c1ccccc1)c1ccccn1 (stereo not shown) [pheniramine],pKa,9.3-9.4
